## Melting point values, as collected for the OPERA models

Melting points are in °C.
Cells with "–" have no entry in this list.

SMILES	name	mp (°C)
O=C(O)c1cc2c(s1)CCCCC2	–	164
Cc1ccc(-n2c(-c3ccc(Cl)cc3)n[nH]c2=S)cc1	–	142
Nc1ccc(C(=O)Nc2cccnc2)cc1	4-amino-n-pyridin-3-ylbenzamide	213
Cn1cc(C(=O)NN)c2ccccc21	1-methyl-1H-indole-3-carbohydrazide	139
CCc1ccccc1NC(=O)CCl	2-chloro-N-(2-ethylphenyl)acetamide	107
Cc1nc2ccccc2c(C)c1C(=O)O	2,4-dimethylquinoline-3-carboxylic Acid	187
CCOc1ccc(NC(=O)C(N=Nc2ccc(-c3ccc(N=NC(C(C)=O)C(=O)Nc4ccc(OCC)cc4)c(Cl)c3)cc2Cl)C(C)=O)cc1 (centres undefined)	C.I. Pigment Yellow 152	310
CC1=CCC(C(C)CC2CCCC2=O)CC1 (centres undefined)	2-(2-(4-Methyl-3-cyclohexen-1-yl)propyl)cyclopentanone	-41.8
CS(=O)(=O)c1cccc(N)c1	3-(methylsulfonyl)aniline	50
N#CCN1CCSCC1	(Thiomorpholin-4-yl)acetonitrile	52
O=C(Nc1cccc(Cl)c1)OCC(F)(F)F	2,2,2-trifluoroethyl 3-chlorophenylcarbamate	36
Cc1nc2n(c(=O)c1CCN1CCC(/C(=N/O)c3ccc(F)cc3F)CC1)CCCC2	Risperidone Z-oxime	194.6
CCOc1ccc(C(=O)CBr)cc1	2-bromo-1-(4-ethoxyphenyl)ethanone	58
O=C(O)COc1ccc(-c2ccccc2)cc1	(biphenyl-4-yloxy)acetic acid	196
O=C(C1=CNCCC1)c1ccccc1	Phenyl(1,4,5,6-tetrahydropyridin-3-yl)methanone	91
CCc1ccc(C2OC3COC(c4ccc(CC)cc4)OC3C(C(O)CO)O2)cc1 (centres undefined)	1,3:2,4-Bis-O-[(4-ethylphenyl)methylene]hexitol	214.5
O=C(O)CCCc1ccc(Cl)cc1	4-(4-Chlorophenyl)butyric acid	59
CCCCN(CCCC)C[Si](OCC)(OCC)OCC	N-Butyl-N-[(triethoxysilyl)methyl]butan-1-amine	-132.5
CC(C)c1ccc(S(=O)(=O)O)cc1	4-Isopropylbenzenesulfonic acid	12
C[N+](C)(CCCCCC[N+](C)(C)C1c2ccccc2-c2ccccc21)C1c2ccccc2-c2ccccc21.[Br-].[Br-]	Hexafluorenium dibromide	154
c1cc(-c2nnco2)ccn1	4-(1,3,4-Oxadiazol-2-yl)pyridine	120
O=C(O)c1c(Cl)ccc(S(=O)(=O)Cl)c1Cl	2,6-dichloro-3-chlorosulfonyl-benzoic Acid	169
CC(=O)c1cnc2ccccc2n1	2-Acetylquinoxaline	77.5
Clc1ccc(Oc2c(Cl)c(Cl)c(Cl)c(Cl)c2Cl)cc1	2,3,4,4',5,6-Hexachlorodiphenyl ether	146
CO/N=C1\C[C@]2(C[C@@H]3C[C@@H](CC=C(C)C[C@@H](C)C=CC=C4CO[C@@H]5[C@H](O)C(C)=C[C@@H](C(=O)O3)[C@]45O)O2)O[C@H](/C(C)=C/C(C)C)[C@H]1C	Moxidectin	150
O=C(O)Cc1csc(-c2ccccc2Cl)n1	[2-(2-chlorophenyl)-1,3-thiazol-4-yl]acetic acid	107
Nc1ccc2c(c1)CCC(=O)N2	6-amino-3,4-dihydroquinolin-2(1H)-one	171
CN(C)C=C1C(=O)CCCC1=O	2-[(Dimethylamino)methylene]-1,3-cyclohexanedione	112
Nc1ccccc1C(=O)NCCCN1CCOCC1	2-Amino-N-[3-(morpholin-4-yl)propyl]benzamide	196
CN(C)S(=O)(=O)c1cc(N)ccc1Cl	5-Amino-2-chloro-N,N-dimethylbenzene-1-sulfonamide	127
Fc1cc(OC(F)(F)c2c(F)cc(Br)cc2F)cc(F)c1F	–	45.4

3 of these entries, quoted again:

{"smiles": "O=C(O)COc1ccc(-c2ccccc2)cc1", "name": "(biphenyl-4-yloxy)acetic acid", "mp (°C)": "196"}
{"smiles": "O=C(Nc1cccc(Cl)c1)OCC(F)(F)F", "name": "2,2,2-trifluoroethyl 3-chlorophenylcarbamate", "mp (°C)": "36"}
{"smiles": "CN(C)C=C1C(=O)CCCC1=O", "name": "2-[(Dimethylamino)methylene]-1,3-cyclohexanedione", "mp (°C)": "112"}

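The numbers are reported measurements, compiled and curated for the OPERA QSAR suite. One number stands for a compound and property, with no spread given. Conditions of the individual experiments are not part of the data. A value may pool stereoisomers or salt forms, and the file does not say which form was measured. Unmarked limits or estimates from the upstream databases cannot be ruled out.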

From the experimental data distributed with OPERA 2.9.